Measurements: patent US8343945B2, “Carriers, formulations, methods for formulating unstable active agents for external application and uses thereof” (Foamix Ltd., priority 2007, dated 2013)

Tests used:
Type in all cases: physicochemical
[1] = Minocycline HCl compatibility tests with excipients (colour change, HPLC assay); conditions: Summary; compatibility tested after the storage for up to 3 weeks
Protocol: About 0.5 g foam or pre-foam formulation is dissolved with diluent (65% phosphate buffer: 35% Acetonitrile (ACN)) in a 25 mL volumetric flask. The sample is shaken […] on an inverted shaker stand for 10 min at room temperature. The resulting suspension is centrifuged for 5 minutes at 4000 rpm. The supernatant is separated by vacuum pump and filtered thereafter through a 0.45 μm PTFE+GL filter. The first few drops of the filtrate are discarded. The resultant clear solution layer is analyzed by HPLC using columnRP-8. The content of MCH is calculated against an MCH standard 0.4 mg/mL (concentration). The content of 4-epiminocycline is calculated against MCH standard 0.02 mg/mL (concentration).
Color is tested by visual observation and in particular by comparison to “Pantone® formula guide solid uncoated” colors. […] Minocycline changes color to orange/greenish with oxidation or complexation. These oxidized colors are not desirable. Colors such as 609U/608U/610U are indicative of degradation by the tetracycline antibiotic.
For convenience the excipients were divided into four different groups (I-IV). […]
Oxidation of minocycline after the storage at various temperatures was detected by color change. Assay for content of the active pharmaceutical ingredient (API) and degradation product (4-epiminocycline) was determined in some samples. […]

[2] = Doxycycline Hyclate compatibility test with excipients
Protocol: (§1) Different compositions of hydrophilic and hydrophobic solvents containing Doxycycline Hyclate (Set I and Set II) and Doxycycline Monohydrate (Set III) were prepared by weighing the antibiotic in a glass vial and shaking overnight with each solvent investigated.
Group II included Doxycycline Hyclate mixed with various vehicles with addition of antioxidants like alpha tocopherol, butylated hydroxytolyene (BHT), ascorbic acid.

[3] = Doxycycline Monohydrate compatibility test with excipients; conditions: for Compatibility with Doxycycline Monohydrate: Summary, compatibility tested after the storage for up to 3 weeks
Protocol: as §1, with “investigated. Mixtures of Doxycycline salts 1.04% w/w with solid excipients were prepared in a similar way as for Minocycline HCl.” for “investigated.”
A similar compatibility test was performed on another form of Doxycycline-Doxycycline Monohydrate. Table 17b and Table 18.

[4] = Summary, compatibility tested after the storage for up to 3 weeks

Row | Substance | Compatibility with Minocycline HCL [1] | Compatibility with Doxycycline Hyclate ([2]; 40° C. and 50° C. for two weeks where stated) | Visual inspection after the storage at 40° C. ([2]; Mixtures of 1.04% w/w of Doxycycline Hyclate with the ingredient, stored at 40° C. for two weeks) | Compatibility with Doxycycline Hyclate [2, 4] | Visual inspection after the storage at 50° C. ([3]; Mixtures of 1.04% w/w of Doxycycline Monohydrate with the ingredient, stored at 50° C. for two weeks) | Compatibility with Doxycycline Monohydrate [3] | Compatibility with Doxycycline Monohydrate (text) ([3]; as summarised in text, 40° and 50° C. for two weeks where stated)
1 | Hexylene glycol | No | stable | light yellow solution | Yes | Black solution. | No | oxidized
2 | Cetearyl octanoate | Yes | – | – | Yes | – | Yes | –
